Laboratory results as given in patent publication US8501936B2 (priority 2009, dated 2013).

The chains behind the UniProt entries cited, without tags or fusion partners.
UniProt Q05397, whole entry: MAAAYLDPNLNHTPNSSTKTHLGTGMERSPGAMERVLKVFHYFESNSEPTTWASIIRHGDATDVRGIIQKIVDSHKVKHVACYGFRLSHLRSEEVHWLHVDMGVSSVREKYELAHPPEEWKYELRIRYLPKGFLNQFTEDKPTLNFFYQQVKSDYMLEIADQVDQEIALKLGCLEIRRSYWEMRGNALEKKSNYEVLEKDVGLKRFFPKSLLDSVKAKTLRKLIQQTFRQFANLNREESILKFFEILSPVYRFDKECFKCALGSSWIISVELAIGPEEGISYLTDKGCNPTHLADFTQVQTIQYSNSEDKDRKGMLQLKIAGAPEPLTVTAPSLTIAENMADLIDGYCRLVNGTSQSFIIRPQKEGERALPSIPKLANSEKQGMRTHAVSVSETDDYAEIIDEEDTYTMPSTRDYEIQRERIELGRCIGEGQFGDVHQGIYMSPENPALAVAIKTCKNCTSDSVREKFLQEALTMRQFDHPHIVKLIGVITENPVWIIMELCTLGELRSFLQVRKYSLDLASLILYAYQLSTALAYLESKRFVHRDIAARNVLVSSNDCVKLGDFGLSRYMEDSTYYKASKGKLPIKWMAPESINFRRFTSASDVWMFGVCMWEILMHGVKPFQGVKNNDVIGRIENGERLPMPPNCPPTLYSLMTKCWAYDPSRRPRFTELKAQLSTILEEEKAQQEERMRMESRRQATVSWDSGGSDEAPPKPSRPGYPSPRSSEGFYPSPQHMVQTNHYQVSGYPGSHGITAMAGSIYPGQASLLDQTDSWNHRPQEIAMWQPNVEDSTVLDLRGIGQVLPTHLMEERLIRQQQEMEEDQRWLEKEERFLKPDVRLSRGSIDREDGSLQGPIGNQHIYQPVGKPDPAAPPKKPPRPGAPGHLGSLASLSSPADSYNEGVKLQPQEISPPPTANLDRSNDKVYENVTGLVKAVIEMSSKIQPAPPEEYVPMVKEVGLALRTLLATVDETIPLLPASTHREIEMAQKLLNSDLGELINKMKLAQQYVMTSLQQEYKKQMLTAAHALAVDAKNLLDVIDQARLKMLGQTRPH

The molecules below were run against human FAK (Homo sapiens (Human), UniProt Q05397). Details: read-out: FAK IC50.
`c1cncc(CNc2cccn3nc(NCCN4CCOCC4)nc23)c1` [Example 101, N(2)-(2-Morpholin-4-yl-ethyl)-N(8)-pyridin-3-ylmethyl-[1,2,4]triazolo[1,5-a]pyridine-2,8-diamine] showed an IC50 of 10 µM. In the case of `Cc1nn(C)c(C)c1Nc1nc2c(-c3ccc(S(C)(=O)=O)cc3)cccn2n1` [Example 210, [8-(4-Methanesulfonyl-phenyl)-[1,2,4]triazolo[1,5-a]pyridin-2-yl]-(1,3,5-trimethyl-1H-pyrazol-4-yl)-amine], the IC50 is reported as 10 µM. `COc1ccc(C(F)(F)F)cc1-c1cccn2nc(Nc3cccc(C4CCN(C(=O)OC(C)(C)C)CC4)c3)nc12` [Example 256] was tested, and the IC50 was 10 µM. Work on `CC(=O)Nc1ccc(Sc2cccn3nc(Nc4ccc(C5CCN(C(=O)OC(C)(C)C)CC5)cc4)nc23)cc1` [Example 281, 4-{4-[8-(4-Acetylamino-phenylsulfanyl)-[1,2,4]triazolo[1,5-a]pyridine-2-ylamino]-phenyl}-piperidine-1-carboxylic acid tert-butyl ester] yielded an IC50 of 10 µM. `CN1CCN(c2ccc(Nc3nc4c(-c5ccc(S(C)(=O)=O)cc5)cc(C(F)(F)F)cn4n3)cc2)CC1` [Example 103, [8-(4-Methanesulfonyl-phenyl)-6-trifluoromethyl-[1,2,4]triazolo[1,5-a]pyridin-2-yl]-[4-(4-methyl-piperazin-1-yl)-phenyl]-amine] was tested, and the IC50 was 10 µM.
